The text below walks through data of patent EP3277718B1 (Baxalta GmbH, dated 2021).

Assay [1] deals with T1, rat MIF, recombinant (rat, UniProt P30904 2-115). The experiment in a line: cell-based or functional assay.
For assay [2], the target named is T2, human MIF (macrophage migration inhibitory factor), recombinant (human, UniProt P14174 2-115).
T2 construct: The background says that MIF crystallises as a trimer; In the potency rows the target is the endogenous MIF of human U937 cells; also called GIF
The experiment in a line: SPR, Biacore 3000, RAM9 on CM5 chip. For orientation: SPR reads the build-up and loss of mass on a sensor chip optically.

In assay [3] the target is T1, rat MIF, recombinant. The experiment in a line: SPR, Biacore 3000, RAM9 amine-coupled to CM5 chip, MIF injected at 40-480 nM, 1:1 Langmuir fit with mass transfer.
The target of assay [4] is mouse MIF, recombinant (mouse, UniProt P34884 2-115). Described as above.

B1: RAM9 (antibody, human IgG1, kappa, V domains shown)
VH: EVQLLESGGGLVQPGGSLRLSCAASGFTFSIYSMNWVRQAPGKGLEWVSSIGSSGGTTYYADSVKGRFTISRDNSKNTLYLQMNSLRAEDTAVYYCAGSQWLYGMDVWGQGTTVTVSS
VL: DIQMTQSPSSLSASVGDRVTITCRSSQRIMTYLNWYQQKPGKAPKLLIFVASHSQSGVPSRFRGSGSETDFTLTISGLQPEDSATYYCQQSFWTPLTFGGGTKVEIKR
notes: also deposited as plasmids DSM 25860 (hc) and DSM 25859 (lc); also called anti-MIF antibody RAM9; anti-oxMIF antibody
By Kd is commonly meant the equilibrium constant for the complex coming apart. Consider B1, for which the “Potency (IC 50); inhibition of random migration of NR8383 rat macrophages, Transwell chemokinesis assay” value in assay [1] was 11 nM. Further, in assay [2], the “fold higher affinity than for mouse and rat MIF” value was ~3 fold. For the same molecule, the values for the Kd in assay [3] and in assay [4] were 5.6 nM and 6.9 nM, respectively.
